Measurements from ChEMBL document CHEMBL1132758, “Synthesis and estrogenic activities of novel 7-thiosubstituted estratriene derivatives” (Bioorg Med Chem Lett, 2000).

Amino acid sequences for entries named in this document (tags omitted).
UniProt P03372, whole entry: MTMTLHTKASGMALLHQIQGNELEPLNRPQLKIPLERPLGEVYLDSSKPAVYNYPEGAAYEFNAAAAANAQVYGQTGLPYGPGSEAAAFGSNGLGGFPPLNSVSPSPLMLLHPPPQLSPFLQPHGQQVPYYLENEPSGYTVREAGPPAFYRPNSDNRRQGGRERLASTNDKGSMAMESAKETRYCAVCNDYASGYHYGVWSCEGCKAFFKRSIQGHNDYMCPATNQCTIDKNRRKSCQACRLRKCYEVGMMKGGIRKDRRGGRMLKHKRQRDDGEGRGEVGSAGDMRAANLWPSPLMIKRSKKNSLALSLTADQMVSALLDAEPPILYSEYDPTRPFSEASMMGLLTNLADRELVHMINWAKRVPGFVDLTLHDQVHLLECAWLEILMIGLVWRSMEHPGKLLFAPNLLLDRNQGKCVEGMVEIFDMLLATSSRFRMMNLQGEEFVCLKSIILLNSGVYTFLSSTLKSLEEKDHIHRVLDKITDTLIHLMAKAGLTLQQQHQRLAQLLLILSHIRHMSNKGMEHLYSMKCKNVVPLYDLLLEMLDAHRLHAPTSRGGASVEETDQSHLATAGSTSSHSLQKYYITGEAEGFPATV

Target: Estrogen receptor (Homo sapiens, UniProt P03372)
Settings: mcf7; call rule not given here

C[C@]12CC[C@@H]3c4ccc(O)cc4C[C@@H](CCCCCCCCC[S+]([O-])CCCC(F)(F)C(F)(F)F)[C@H]3[C@@H]1CC[C@@H]2O (stereo partly specified) [FULVESTRANT]
EC50: Not Active
